Experimental data published in patent publication US20100190851A1, “Use of Entacapone in cosmetic, dermatological and pharmaceutical compositions” (priority 2007, published 2010).

How the values were obtained:
[1] = system: human E-selectin-IgG chimera; test: Flow chamber assay, attachment of HL-60 cells to E-selectin; assay type: cell-based; parameters: dose or concentration left out as unconfirmed; conditions: flow shear 1 dyne/cm^2; after 5 minutes continuous flow
Protocol: (§1) Flow Chamber Assay/Cell Adhesion and Rolling under Flow Conditions
(§2) To assess the capability of compound of formula (I) to inhibit cell binding under dynamic conditions resembling the flow in a blood vessel, flow chamber assays addressing/testing binding of HL-60 cells/various cell lines to P-selectin, and E-selectin chimeric molecules are performed.
(§3) Cell attachment under flow conditions is determined using a parallel flow chamber system. […]
(§4) After washing with assay buffer (“Roswell Park Memorial Institute 1640” (RPMI 1640)+10 mM HEPES) the dish is fitted into a parallel plate laminar flow chamber (sold from Glycotech, Rockville, Md.) and mounted on an inverted phase-contrast microscope (sold from Olympus, Hamburg, Germany) equipped with a CCD camera (JVC) that is connected to a PC. […] The flow rate is then decreased resulting in a calculated flow shear of 1 dyne/cm^2. Video sequences of 10 low power fields are digitally recorded after 5 minutes continuous flow. The percentage of inhibition is calculated from the mean number of cells per field that attached to the coated dish surface in the presence versus absence of compound of formula (I) of at independent experiments. […]

[2] = system: human P-selectin-IgG chimera; test: Flow chamber assay, attachment of HL-60 cells to P-selectin; assay type: cell-based; parameters: dose or concentration left out as unconfirmed; conditions: flow shear 1 dyne/cm^2; after 5 minutes continuous flow
Protocol: as §1, §2, §3, §4

[3] = biological target: T1, human P-Selectin-IgG-chimera (Homo sapiens, UniProt P16109); test: Sialyl Lewis^X Tyrosine Sulfate Assay (sLe^X TSA), P-selectin; conditions: binding of P-selectin chimera to sLe^X-tyrosine sulfate polyacrylamide
T1 construct: fused on or other part: human IgG Fc part, fused on as a capture and dimerising handle (captured by goat anti human Fc antibody)
T1 sequence (P16109 42-195 limits assumed): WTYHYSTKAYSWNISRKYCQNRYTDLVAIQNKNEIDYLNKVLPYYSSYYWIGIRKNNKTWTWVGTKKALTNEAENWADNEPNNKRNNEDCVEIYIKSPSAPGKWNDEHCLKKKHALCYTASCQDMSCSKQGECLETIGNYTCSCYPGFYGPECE
Protocol: Sialyl Lewis^X Tyrosine Sulfate Assay (sLe^X TSA):
Compound of formula (I) is assayed on a molecular level for the ability to inhibit the binding of P- and L-selectin chimeric molecules to sLe^X and tyrosinesulfate residues linked to a polymeric matrix as a PSGL-1 substitute. IC50-values are determined.
Microtiter plates are coated overnight in carbonate buffer pH9.6 with goat anti human Fc mAB (10 μg/ml). After washing in assay buffer (25 mM 4-(2-hydroxyethyl)-1-piperazineethanesulfonic acid (HEPES), 150 mM NaCl, 1 mM CaCl2 pH7.4) and blocking (3% bovine serum albumin (BSA) in assay buffer) plates are incubated for 2 h at 37° C. with human P-Selectin-IgG-chimera (0.61 nM respectively 150 ng/mL) or human L-Selectin-IgG-chimera (0.61 nM respectively 89 ng/mL). 5 μl of sLe^X-tyrosine sulfate polyacrylamide (1 mg/ml) carrying 15% sLe^X, 10% Tyrosine-sulfate and 5% biotin is complexed with 20 μl Streptavidin-Peroxidase solution (1 mg/ml) and 25 μl assay buffer without CaCl2. […]
After incubation for 2 h at 37° C., wells are washed for six times with in assay buffer incl. […] Bound sLe^X-Tyrosine sulfate ligand complex is determined by measuring optical density at 450 nm vs. 620 nm in a Fusion alpha-FP reader (sold from Packard Bioscience, Dreieich, Germany). […]

sialyl Lewis X [sLe^X]
% inhibition of attachment of HL-60 cells, E-Selectin [1]: 32%
% inhibition of attachment of HL-60 cells, P-Selectin [2]: n.s.
IC50 [3]: > 3.6 mM
